From PubChem BioAssay AID893 (National Center for Advancing Translational Sciences (NCATS), 2007)
Only a part is listed here, and it is no random draw. Results filed as inconclusive are left out. The source made the active and inactive calls. Calls come from the whole dose curve; as a rule, active = well fitted inhibition curve with a large enough effect; inconclusive = small, poorly fitted or top-dose-only effect; inactive = no such curve, though single readings can be large or run the other way.

molecular target: 3-hydroxyacyl-CoA dehydrogenase type-2 (Homo sapiens) (UniProt Q99714); experiment: qHTS Assay for Inhibitors of HSD17B4, hydroxysteroid (17-beta) dehydrogenase 4; conditions: recombinant HSD17B10, NADH fluorescence kinetic; note: nearly all actives have a fitted effect of over 70% in size
From the text: Assay Overview: NIH Molecular Libraries Screening Centers Network [MLSCN] NIH Chemical Genomics Center [NCGC] Structural Genomics Consortium [SGC] Grant number: None HADH2: Hydroxyacyl-Coenzyme A dehydrogenase, type II, was supplied by researchers at the Structural Genomics Consortium, Oxford University lab (PI Udo Oppermann). The mitochondrial enzyme 17-hydroxysteroid dehydrogenase type 10 (HSD17-10) previously classified as type II hydroxyacyl-CoA dehydrogenase (HADH2) catalyzes the NAD+ dependent oxidation of a variety of substrates including acyl-CoAs, androgens and neurosteroids as well as bile acids(Shafqat N, Marschall HU, Filling C, et al. Biochemical Journal. 2003;376(Pt 1):49-60). […] The enzyme was produced by E.coli fermentation as His-tagged recombinant for the purpose of X-ray structure determination, and had been mass-spectrometry characterized. Inhibition of HADH2 activity was screened by utilizing beta-hydroxybutyryl coenzyme A as an electron donor and NAD+ as an electron acceptor/cofactor. An increase in the fluorescence intensity due to conversion of NAD+ to NADH was used to measure the enzyme activity.
Assay Protocol: Buffer: 100 mM Tris-HCl pH 9.0, containing 0.01 % Tween-20. Reagents/Controls: Buffer in columns 3 and 4 as negative control (no enzyme). Substrate/cofactor solution: 1 mM NAD+ and 90 uM beta-hydroxybutyryl coenzyme A (Sigma-Aldrich, St. Louis, MO) final concentrations dispensed throughout the plate. Enzyme: 20 nM HADH2 final concentration in columns 1, 2, 5-48. Column 1 is neutral (100% activity). Column 2 contained titration of apomorphine (Sigma-Aldrich, A 4393, PubChem CID 2215, top concentration 500 uM, then 1:2 dilution in duplicate) Assay Steps: Three uL of enzyme were dispensed to 1536-well Greiner black solid bottom plates. […] The plates were immediately transferred to and read every 30 seconds for 4 min on ViewLux High-throughput CCD imager (Perkin-Elmer) using 360 nm excitation and 450 nm emission fluorescence protocol. The fluorescence intensity difference between the last and the first time points was used to compute reaction progress.
Potency is the fitted concentration of half-maximal effect.

Potency, active:
COc1cc2nc(N(C)CCCNC(=O)C3CCCO3)nc(N)c2cc1OC (stereo not drawn) 25.1 µM, COc1cc2nc(N(C)CCCNC(=O)[C@@H]3CCCO3)nc(N)c2cc1OC 12.6 µM, O=c1ccc2ccc(O)cc2o1 25.1 µM
